pKi: −log10 of the molar value.
Target: T1, butyrylcholinesterase (Equus caballus, UniProt P81908)
T1 construct: butyrylcholinesterase (from horse serum); purchased Sigma; host or cells: horse serum (natural source)
Assay: biochemical
Parameters: species or system horse
Method: Cholinesterase activity measurements were performed essentially according to the method of Ellman (Biochemical Pharmacology 7:88-90, 1961). The composition of the assay mixture was 0.1 M sodium phosphate, pH 7.5, 0.033 M DTNB, 0.001 M MgCl2, and 100 μg/mL of BSA containing appropriate amounts of substrate and inhibitor. Each assay was initiated by the addition of substrate and the activity quantified by measuring the formation of the thionitrobenzoate anion at 412 nm at 37° C. Methanol used to solubilize the dialkyl phenyl phosphates [1% (v/v) final concentration] had no inhibitory effect on either enzyme.
. The results were obtained by pre-incubating the enzyme with the compound (final concentration 10^−7M) for various periods of time and measuring the remaining enzyme activity. The results are shown as the change in absorbance at 412 nm/minute. In order to simplify the results from all the compounds, the enzyme activities were normalized to 2-chlorophenyl-di-n-butyl phosphate which was set as 1.0. Since two different preparations of enzyme were used, the normalization procedure would adjust for any differences in the amount of enzyme. […]. […]
Table 4: Rates of inactivation of butyrylcholinesterase by exemplary compounds: Change in Absorbance at 412 nm/Minute. […]

The chains behind the UniProt entries cited, without tags or fusion partners.
UniProt P81908, whole entry: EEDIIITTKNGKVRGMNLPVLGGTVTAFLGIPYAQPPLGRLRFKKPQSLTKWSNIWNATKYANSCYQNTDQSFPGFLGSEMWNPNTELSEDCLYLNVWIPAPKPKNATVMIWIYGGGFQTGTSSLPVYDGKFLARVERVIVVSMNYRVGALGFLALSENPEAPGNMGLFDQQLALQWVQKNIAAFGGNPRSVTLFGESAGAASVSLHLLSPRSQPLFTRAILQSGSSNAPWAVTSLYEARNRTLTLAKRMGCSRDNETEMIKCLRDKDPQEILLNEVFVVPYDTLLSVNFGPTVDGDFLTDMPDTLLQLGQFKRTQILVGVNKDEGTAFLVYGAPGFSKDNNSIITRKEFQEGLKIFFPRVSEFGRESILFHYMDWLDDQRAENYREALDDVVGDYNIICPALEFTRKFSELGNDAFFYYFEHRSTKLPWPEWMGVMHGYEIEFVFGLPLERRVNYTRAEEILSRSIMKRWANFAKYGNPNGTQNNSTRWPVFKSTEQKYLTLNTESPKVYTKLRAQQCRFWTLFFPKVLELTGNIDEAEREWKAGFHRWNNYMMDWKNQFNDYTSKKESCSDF

Structure (SMILES): CCCCOP(=O)(OCCCC)Oc1ccccc1C
- pKi: 5.68

— patent US9757399B2, “Butyrylcholinesterase inhibitors” (priority 2006, dated 2017)
